Source: patent US9359392B2, “Dendrimer scaffolds for pharmaceutical use” (Victoria Link Limited, priority 2012, dated 2016)

Test: Water solubility of the gadolinium complex
Format: physicochemical
From the text: 34-Gd is water soluble. […] Therefore, an alternative cation is required. Gd-DPTA is the active ingredient in Magnevist, a commercial MRI contrast agent. In Magnevist, meglumine is used to make Gd-DPTA water soluble.

With “Gadolinium complex of 2-aminoacetic acid(N,N):{6-aza-3-oxahexanyl(6,6)}2x^G1: (carboxymethyl)4-cascadane [34-Gd]” the water solubility was “water soluble”.
